Published antibiotic growth screens (doi:10.1038/s41589-023-01349-8)
This is one part of the list.

test system: A. baumannii ATCC 17978; assay: relative growth (fraction of control); higher = less inhibition; settings: 50 µM

SMILES | relative growth
C[C@H]1NC(=O)N[C@@H]1CCCCC(=O)O | 0.911
COc1ccc(C#Cc2ccc3c(c2)[C@]2(C(=O)N3)[C@H](c3ccccc3OCCO)N3[C@H](c4ccccc4)[C@H](c4ccccc4)OC(=O)[C@H]3[C@@H]2C(=O)N2CCN(c3ncccn3)CC2)cc1 | 1.03
O=C(O[C@@H]1Cc2c(O)cc(O)cc2O[C@@H]1c1cc(O)c(O)c(O)c1)c1cc(O)c(O)c(O)c1 | 0.807
CCOC(=O)[C@H](CCc1ccccc1)N[C@@H](C)C(=O)N1[C@H](C(=O)O)C[C@H]2CCCC[C@@H]21 | 0.871
C[C@H]1COC(=O)[C@H](NC(=O)OCC2c3ccccc3-c3ccccc32)CC=CC[C@@H](CC(=O)NCCO)C(=O)N1 | 0.864
C[C@@H]1O[C@@H](O[C@@H]2[C@@H](O)[C@H](OCCc3ccc(O)c(O)c3)O[C@H](CO)[C@H]2OC(=O)/C=C/c2ccc(O)c(O)c2)[C@H](O)[C@H](O)[C@H]1O | 1.22
COc1ccc(NC(=O)N(C)C[C@H]2Oc3cc(C#CCN(C)C)ccc3S(=O)(=O)N([C@H](C)CO)C[C@@H]2C)cc1 | 0.84
COCC(=O)N(C)C[C@@H]1Oc2cc(-c3ccc(OC)cc3)ccc2S(=O)(=O)N([C@@H](C)CO)C[C@H]1C | 0.975
O=C1O[C@@H](c2ccccc2)[C@@H](c2ccccc2)N2[C@@H](c3ccc(O)cc3)[C@]3(C(=O)Nc4ccc(C#CC5(O)CCCCCC5)cc43)[C@@H](C(=O)N3CCCCCCC3)[C@H]12 | 0.84
COCC(=O)Nc1ccc2c(c1)C(=O)N(C)[C@H]1CC[C@H](CC(=O)N3CCc4ccccc4C3)O[C@H]1CO2 | 1.04
CC(=O)OC[C@]12[C@H](OC(=O)c3ccccc3)C[C@@H]3[C@@H](OC(C)=O)[C@]1(OC3(C)C)[C@H](C)C[C@H](OC(C)=O)[C@@H]2OC(C)=O | 0.869
CC1(C)C2CC[C@]3(C)C(C(=O)C=C4[C@@H]5C[C@@](C)(C(=O)O)CC[C@]5(C)CC[C@]43C)[C@@]2(C)CC[C@@H]1O (stereo partly drawn) | 1.21
O=C(O)C[C@H]1NC(=O)c2ccccc21 | 0.928
COc1c(Cl)c(C)c(C(=O)Oc2cc(C)c(C(=O)O)c(O)c2)c(O)c1Cl | 0.99
COc1ccc(NC(=O)N2C[C@H](O)COC[C@H]3O[C@H](CC(=O)NC4Cc5ccccc5C4)CC[C@@H]32)cc1 | 0.969
O=C(N[C@@H]1C=C[C@@H](CC(=O)N2CCOCC2)O[C@@H]1CO)c1ccccn1 | 0.809
CCCN1CCC2(CC1)NC(=O)N(CC(=O)N1CCN(C(=O)OCC)CC1)C2=O | 1.02
CC(C)NC(=O)N[C@@H]1C=C[C@@H](CC(=O)O)O[C@H]1CO | 1.14
